Measured values taken from patent US5283180A, “Bioluminescence method for the determination of pesticides” (priority 1992, dated 1994).
Where two headings read alike, the source gives them in different places.

Tested on: Bee Brain Activity for Ac-luciferin (esterase activity of bee brain extract)
Type: biochemical, honey bees
Protocol: 1. Sample is preincubated with a predetermined quantity (dilution 1:200) of brain preparation for 5 minutes.
2. Luciferin acetate (200 pmoles) is added to the incubation mixture for additional 5 minutes.
3. A portion of this […] mixture (100 μl) is withdrawn and added to the luciferase and ATP reaction mixture (1 ml).
4. Bioluminescence reading for 2-5 seconds is monitored.
5. The reading of the pesticide sample is compared to the control sample to quantitate the percent inhibition of the sample (see Tables 3, 4, 5 and 6) .
Insects are stored from at -20° C. or below. Insect heads are collected by dissection with a scalpel and placed in a 50 ml beaker containing approximately 15 ml ice cold 0.07M phosphate buffer, pH 7.0, containing 1 mM EDTA (ethylenediaminetetra acetic acid) and 1 μM phenylthiourea. The insect heads are gently homogenized at low speed in a Tekmar Tissumizer. Aliquots of this crude extract are transferred to microcentrifuge tubes and centrifuged. […] Fractions are collected every 2 minutes and monitored for esterase activity using luciferin acetate as a substrate and measuring bioluminescence. […]
6. […] In the positive samples the esterolitic activity of the bee extract will be inhibited and less luciferin will form giving a low bioluminescent reading. Divide sample reading or positive control by zero control and multiply to 100 to get percent inhibition.

SMILES	% activity (50 ppb pesticide) [%]	% activity (5.0 ppb pesticide) [%]
CCOP(=S)(OCC)Oc1cc(C)nc(C(C)C)n1 [Diazinon]	45	–
COP(=S)(OC)Oc1ccc([N+](=O)[O-])cc1 [Methyl parathion]	–	15
